Assay results published in paper PMC10323247.

Biological target: recombinant human augmin complex (GFP-augmin), all eight full-length subunits HAUS1-HAUS8 (human) (UniProt Q96CS2)
Experiment: MST; twofold dilution series of importins α/β (4.3 μM-0.131 nM final) mixed with an equal amount of 10 nM mGFP-augmin; BRB80, 1 mM TCEP, 0.02 mg/ml κ-casein, 3 mM ATP, 2 mM GTP; 5 min at room temperature; Monolith NT.115

Kd: 13.1 nM
Substance: human importin α (KPNA2 subunit) and importin β (KPNB1 subunit), together importin α/β (from UniProt P52292 1-529; Q14974 1-876) (complex; other documents disagree on this pair)
